In one assay the target is human RBP4 (Homo sapiens (Human), UniProt P02753). The assay can be described thus: SPA binding assay for RBP4 (scintillation proximity, 3H-retinol displacement). To be noted: read-out: SPA binding assay for RBP4 - IC50; 10 nM 3H-retinol, 50 nM biotinylated RBP4.
The next assay deals with RBP4-TTR interaction (Homo sapiens (Human), UniProt P02753). The assay can be described thus: HTRF (TR-FRET) assay for antagonists of retinol-induced RBP4-TTR interaction. Format: biochemical. To be noted: read-out: HTRF assay for antagonists of RBP4-TTR interaction - IC50; in the presence of 1 μM retinol.

Usually IC50 stands for the concentration at which inhibition is half-maximal.

Structures are written as SMILES.

On to `O=C(c1nc2ncc(Br)cn2n1)N1C[C@H]2C[C@@H](c3ccccc3OC(F)(F)F)C[C@H]2C1`, for which the IC50 at human RBP4 was determined as 34.6 nM; at RBP4-TTR interaction it was 604 nM.
Consider `O=C(c1nc2ncc(CCO)cn2n1)N1C[C@H]2C[C@@H](c3ccccc3OC(F)(F)F)C[C@H]2C1`, for which the IC50 came to 39.5 nM at human RBP4 and 450 nM on RBP4-TTR interaction.

(Values after patent US12168664B2, “Triazolopyrimidines, their preparation and use” (THE TRUSTEES OF COLUMBIA UNIVERSITY IN THE CITY OF NEW YORK, priority 2018, dated 2024).)
